## Apparent affinities of Ab-14 variants for a coronavirus HR2 peptide

Reference: Li et al. 2023, doi:10.1038/s41467-023-39022-2. File: FLAb, binding data.

All variants were tested on one target, the spike HR2 peptide PDVDLGDISGINAS (SARS-CoV-2).

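Phage display of a naive human antibody library on the peptide gave the parent. Designed CDR sequences, proposed from the first random library and measured here. Their group label is 14H_GPLM_Gen (GPLM: also part of the Gaussian process libraries; Gen: genetic algorithm; a sequence that several methods proposed may carry one label only). Affinity was read by AlphaSeq, a pooled yeast mating assay with surface-displayed partners. Mating (16 h, 30 °C) was followed by selection of diploids and sequencing of their barcodes. Each replicate has its own calibration line, from reference interactions of the BCL2 family. Each pool was mated in six replicate cultures.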

Ab-14 is the parent antibody, in scFv form: VH, then the linker GGGGSGGGGSGGGGS, then VL. The light chain is unchanged in all variants.
VH: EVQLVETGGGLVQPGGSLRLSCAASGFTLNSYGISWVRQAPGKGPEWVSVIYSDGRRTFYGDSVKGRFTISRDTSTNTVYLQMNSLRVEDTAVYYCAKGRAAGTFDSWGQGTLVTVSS
VL: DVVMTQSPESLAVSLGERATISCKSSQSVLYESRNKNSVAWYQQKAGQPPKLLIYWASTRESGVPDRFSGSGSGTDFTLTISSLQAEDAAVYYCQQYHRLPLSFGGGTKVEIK

Each variant is given by its three heavy chain CDRs, as the data file delimits them; those of the parent are GFTLNSYGIS, VIYSDGRRTFYGDSVK, GRAAGTFDS. Affinities are written as log10 Kd with Kd in nM; a lower number is a better binder. The mean shown is taken over the replicates in which the pair was detected. An entry "ND" has no value in the source: the pair was not observed among the diploids in that replicate. This suggests poor binding but is not conclusive. The authors' rule: three or more of the six replicates give a measured affinity, fewer mean a poor binder.

CDR-H1 | CDR-H2 | CDR-H3 | replicates, log10 nM | mean log10 Kd (nM) | empty controls
GFSLNSYGIS | VIYSDGRRTFYVDSVK | GRVAGTFDS | 1.18 / 1.21 / 2.10 / 0.75 / 0.75 / 0.45 | 1.07 | 0/18
GFSLNSYGIS | VIYSDGRRTFYVDSVK | GRTAGTFDS | ND / 0.69 / ND / 1.46 / 0.07 / ND | 0.74 | 0/18
GFSLNEYGIS | VIYSDGSRTFYGDSVK | GRTAGTFDS | 0.28 / 0.25 / 0.08 / -0.20 / -0.21 / 0.24 | 0.07 | 0/18
GFSLNSYGIS | VIYSDGRRTFYADSVK | GEAAGTFDT | 0.30 / 0.25 / 0.14 / 0.25 / 0.15 / 0.18 | 0.21 | 2/18 (3.10)
GFNLNSYGIS | VIYSDGRRTFYADSVK | GEAAGTFDS | 0.75 / 0.53 / 0.53 / 0.60 / 0.54 / 0.55 | 0.58 | 1/18 (3.62)
GFTLNSYGIS | VIYADGKRTFYGDSVK | GRAAGTFDS | -0.14 / 1.52 / -0.01 / -0.16 / -0.19 / -0.09 | 0.15 | 0/18
GFNLNSYGIS | VIYSDGRRTFYTDSVK | GEAAGTFDS | 1.62 / 1.47 / 1.36 / 2.66 / ND / 2.80 | 1.98 | 0/18
GFSLNEYGIS | VIYSDGRRTFYADSVK | GRAAGTFDM | 0.17 / -0.14 / -0.05 / -0.74 / 0.17 / -0.19 | -0.13 | 0/18
GFSLNSYGIS | VIYSDGQRTFYVDSVK | GRTAGTFDS | 1.43 / 0.90 / 0.91 / 0.24 / ND / 1.16 | 0.93 | 0/18
GFDLNSYGIS | VIYSDGRRTFYGDSVK | GRTAGTFDF | 0.84 / 0.80 / 0.80 / 0.98 / 0.71 / 1.24 | 0.90 | 1/18 (2.28)
GFTLNDYGIS | VIYSDGRRTFYGDSVK | GRTAGTFDK | 0.52 / 0.61 / 0.25 / 0.25 / 0.65 / 0.51 | 0.47 | 0/18
GFELNSYGIS | VIYSDGRRTFYADSVK | GEAAGTFDS | 0.32 / 0.74 / 0.09 / 0.71 / 0.68 / 0.88 | 0.57 | 0/18
GFSLNMYGIS | VIYSDGRRTFYADSVK | GRTAGTFDS | 0.88 / 0.99 / 0.30 / -0.10 / 0.63 / 0.89 | 0.60 | 0/18
GFHLNSYGIS | VIYSDGRRTFYKDSVK | GRTAGTFDS | 2.47 / 1.06 / 1.03 / ND / 2.28 / 1.16 | 1.60 | 2/18 (2.31)
GFSLNDYGIS | VIYSDGRRTFYGDSVK | GSAAGTFDS | 0.33 / 0.04 / -0.40 / -0.24 / -0.27 / 0.24 | -0.05 | 0/18
GFSLNSYGIS | VIYSDGRRTFYADHVK | GQAAGTFDS | 0.68 / 1.06 / 0.83 / 0.51 / 0.68 / 0.65 | 0.74 | 1/18 (2.65)
GFELNSYGIS | VIYADGRRTFYGDSVK | GDAAGTFDS | -0.34 / -0.47 / -0.41 / -0.76 / 0.01 / 0.06 | -0.32 | 0/18
GFNLNSYGIS | VIYSDGRRTFYADSVK | GQAAGTFDS | -0.01 / -0.16 / -0.08 / -0.33 / -0.18 / -0.32 | -0.18 | 0/18
GFSLNSYGIS | VIYSDGRRTFYGDSVK | GEAAGTFDQ | -0.17 / 0.65 / -0.20 / -0.10 / 0.62 / 0.73 | 0.26 | 0/18
GFTLNSYGIS | VIYSDGRRTFYGDSVK | GRTAGTFWV | ND / ND / ND / ND / ND / ND | ND | 0/18
GETLNSYGIS | VIYADGRRTFYGDSVK | GRAAGTFDS | 0.17 / 0.58 / 0.17 / 0.06 / 0.66 / 0.26 | 0.31 | 0/18
GFDLNNYGIS | VIYSDGRRTFYGDSVK | GKAAGTFDS | 0.42 / -0.10 / 1.11 / -0.19 / -0.15 / 1.03 | 0.35 | 1/18 (0.73)
GFSLNSYGIS | VIYSDGRRTFYCDSVK | GKAAGTFDS | ND / 2.26 / 1.57 / 1.53 / 1.41 / 3.38 | 2.03 | 1/18 (1.53)
GFSLNSYGIS | VIYSDGRRTFYADMVK | GEAAGTFDS | 1.60 / 1.38 / 1.83 / 2.03 / 1.51 / 1.53 | 1.65 | 1/18 (4.50)
GFGLNSYGIS | VIYSDGRRTFYSDSVK | GEAAGTFDS | 0.70 / 0.81 / 0.77 / 1.43 / 1.89 / 0.94 | 1.09 | 0/18
GFQLNSYGIS | VIYADGRRTFYGDSVK | GRTAGTFDS | 0.48 / 0.15 / 0.24 / 0.11 / 0.24 / 0.44 | 0.28 | 1/18 (2.71)
GFELNEYGIS | VIYSDGRRTFYGDSVK | GRHAGTFDS | ND / 0.40 / 0.07 / ND / ND / 0.63 | 0.37 | 0/18
GFSLNSYGIS | VIYSDGRRTFYGDPVK | GEAAGTFDS | ND / 0.07 / 2.23 / 0.69 / 0.36 / 1.76 | 1.02 | 0/18
GFTLNSYGIS | VIYSDGRRTFYSDSVK | GVAAGTFDS | ND / 0.80 / -0.61 / 0.83 / 1.21 / 0.69 | 0.58 | 0/18
GFNLNEYGIS | VIYSDGRRTFYGDSVK | GRTAGTFDS | 0.21 / -0.04 / 0.06 / -0.31 / -0.15 / 0.15 | -0.01 | 0/18
GFSLNYYGIS | VIYSDGRRTFYGDSVK | GRTAGTFDS | 0.87 / 1.72 / 0.95 / 2.22 / 1.00 / 1.90 | 1.44 | 0/18
GFSLNSYGIS | VIYSDGRRTFYGDSVK | GATAGTFDR | 0.91 / 0.70 / 0.18 / 0.27 / 0.25 / 0.49 | 0.47 | 0/18
GFSLNEYGIS | VIYSDGRRTFYGDSVK | GEAAGTFDK | -0.71 / -0.39 / -0.09 / -0.75 / -0.35 / 0.23 | -0.34 | 0/18
GFTLNSYGIS | VIYSDGRRTFYSDSVK | GKIAGTFDS | 0.16 / -0.34 / -0.55 / -0.18 / -0.13 / -0.30 | -0.22 | 0/18
GFSLNSYGIS | VIYSDGRRTFYDDSVK | GAAAGTFDS | 0.53 / 0.11 / 0.01 / 0.22 / 0.36 / 0.27 | 0.25 | 1/18 (2.09)
GFQLNEYGIS | VIYSDGRRTFYGDSVK | GHAAGTFDS | 1.68 / 0.78 / 1.04 / 1.53 / 1.48 / 2.36 | 1.48 | 0/18
GFSLNSYGIS | VIYADGRRTFYGDSVK | GRMAGTFDS | -0.22 / -0.58 / -0.89 / -0.78 / -0.53 / -0.57 | -0.59 | 0/18
GFTLNSYGIS | VIYSDGMRTFYGDSVK | GREAGTFDT | 0.92 / 1.04 / 1.23 / 0.95 / 0.42 / 0.90 | 0.91 | 0/18
GFSLNSYGIS | VIYSDGRRTFYHDSVK | GKAAGTFDS | 1.43 / ND / ND / ND / ND / ND | 1.43 | 0/18
GFNLNSYGIS | VIYSDGRRTFYGDSVK | GRQAGTFDS | 0.89 / 0.53 / 0.99 / 0.18 / 0.42 / 1.05 | 0.68 | 0/18
GFSLNSYGIS | VIYSDGRRTFYGDSVK | GWAAGTFDS | 1.21 / 0.95 / 2.26 / 0.97 / 1.18 / 0.88 | 1.24 | 0/18
GFVLNSYGIS | VIYSDGRRTFYADSVK | GTAAGTFDS | 0.62 / 1.06 / 0.81 / 0.74 / 0.76 / 1.46 | 0.91 | 0/18
GFELNDYGIS | VIYSDGRRTFYADSVK | GRAAGTFDS | 0.35 / 0.67 / 0.45 / 0.56 / 0.49 / 0.61 | 0.52 | 1/18 (1.59)
GFTLNSYGIS | VIYSDGKRTFYGDSVK | GRTAGTFDS | 1.13 / 0.81 / 1.24 / 0.90 / 0.56 / 0.87 | 0.92 | 1/18 (1.98)
GFTLNSYGIS | VIYSDGKRTFYGDSVK | GRVAGTFDS | 1.69 / 1.17 / 0.88 / 0.64 / 1.85 / 1.72 | 1.33 | 1/18 (2.41)
GFSLNDYGIS | VIYSDGRRTFYADSVK | GRTAGTFDS | 0.57 / 0.04 / -0.02 / -0.09 / 0.11 / 0.36 | 0.16 | 3/18 (2.45)
GFGLNSYGIS | VIYSDGRRTFYADSVK | GQTAGTFDS | 0.08 / -0.23 / 0.31 / -0.03 / -0.14 / -0.19 | -0.03 | 0/18
GFSLNSYGIS | VIYSDGRRTFYADQVK | GQAAGTFDS | 1.28 / 0.68 / 0.61 / 0.36 / 1.08 / 0.31 | 0.72 | 1/18 (1.53)

Excerpt, the final 3 entries:

CDR-H1 | CDR-H2 | CDR-H3 | replicates, log10 nM | mean log10 Kd (nM) | empty controls
GFSLNDYGIS | VIYSDGRRTFYADSVK | GRTAGTFDS | 0.57 / 0.04 / -0.02 / -0.09 / 0.11 / 0.36 | 0.16 | 3/18 (2.45)
GFGLNSYGIS | VIYSDGRRTFYADSVK | GQTAGTFDS | 0.08 / -0.23 / 0.31 / -0.03 / -0.14 / -0.19 | -0.03 | 0/18
GFSLNSYGIS | VIYSDGRRTFYADQVK | GQAAGTFDS | 1.28 / 0.68 / 0.61 / 0.36 / 1.08 / 0.31 | 0.72 | 1/18 (1.53)

Three control strains display no target. For all heavy chain designs, 1% of the pairings with them gave a signal, with a median of 2.08 and one signal in twenty below 0.84, so weak values seen in few replicates may be background. For each scFv, signals with the empty controls are counted beside the result, with their mean in brackets. Of ten entries with the parent sequence, four were seen in most replicates (averages 0.34 to 2.37), three in one and three in none, so single entries are noisy. A sequence measured in both rounds can read differently, since the two assays cover different ranges.